Measured values published in ChEMBL document CHEMBL1144455, “A small molecule-kinase interaction map for clinical kinase inhibitors” (Nat Biotechnol, 2005).

Amino acid sequences for entries named in this document (tags omitted). A change or cut given only in a name is not applied to a line headed by its entry.
UniProt P53779: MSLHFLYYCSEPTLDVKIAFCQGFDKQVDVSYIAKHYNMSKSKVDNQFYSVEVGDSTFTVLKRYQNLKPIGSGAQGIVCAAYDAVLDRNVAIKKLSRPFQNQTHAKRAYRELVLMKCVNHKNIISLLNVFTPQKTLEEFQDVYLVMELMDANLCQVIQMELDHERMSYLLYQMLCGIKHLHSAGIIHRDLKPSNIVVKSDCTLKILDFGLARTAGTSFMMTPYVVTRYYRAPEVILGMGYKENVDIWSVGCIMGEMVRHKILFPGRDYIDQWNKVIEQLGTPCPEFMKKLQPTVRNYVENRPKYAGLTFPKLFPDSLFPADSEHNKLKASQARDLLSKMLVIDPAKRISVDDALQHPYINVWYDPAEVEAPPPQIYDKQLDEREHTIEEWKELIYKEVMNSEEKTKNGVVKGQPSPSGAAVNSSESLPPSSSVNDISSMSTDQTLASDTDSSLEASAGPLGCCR

How the values were obtained:
[1] = target: Mitogen-activated protein kinase 10 (Homo sapiens, UniProt P53779)
Ephrin type-A receptor 8 = target: T1, Ephrin type-A receptor 8 (Homo sapiens, UniProt P29322)
T1 sequence (P29322 whole entry): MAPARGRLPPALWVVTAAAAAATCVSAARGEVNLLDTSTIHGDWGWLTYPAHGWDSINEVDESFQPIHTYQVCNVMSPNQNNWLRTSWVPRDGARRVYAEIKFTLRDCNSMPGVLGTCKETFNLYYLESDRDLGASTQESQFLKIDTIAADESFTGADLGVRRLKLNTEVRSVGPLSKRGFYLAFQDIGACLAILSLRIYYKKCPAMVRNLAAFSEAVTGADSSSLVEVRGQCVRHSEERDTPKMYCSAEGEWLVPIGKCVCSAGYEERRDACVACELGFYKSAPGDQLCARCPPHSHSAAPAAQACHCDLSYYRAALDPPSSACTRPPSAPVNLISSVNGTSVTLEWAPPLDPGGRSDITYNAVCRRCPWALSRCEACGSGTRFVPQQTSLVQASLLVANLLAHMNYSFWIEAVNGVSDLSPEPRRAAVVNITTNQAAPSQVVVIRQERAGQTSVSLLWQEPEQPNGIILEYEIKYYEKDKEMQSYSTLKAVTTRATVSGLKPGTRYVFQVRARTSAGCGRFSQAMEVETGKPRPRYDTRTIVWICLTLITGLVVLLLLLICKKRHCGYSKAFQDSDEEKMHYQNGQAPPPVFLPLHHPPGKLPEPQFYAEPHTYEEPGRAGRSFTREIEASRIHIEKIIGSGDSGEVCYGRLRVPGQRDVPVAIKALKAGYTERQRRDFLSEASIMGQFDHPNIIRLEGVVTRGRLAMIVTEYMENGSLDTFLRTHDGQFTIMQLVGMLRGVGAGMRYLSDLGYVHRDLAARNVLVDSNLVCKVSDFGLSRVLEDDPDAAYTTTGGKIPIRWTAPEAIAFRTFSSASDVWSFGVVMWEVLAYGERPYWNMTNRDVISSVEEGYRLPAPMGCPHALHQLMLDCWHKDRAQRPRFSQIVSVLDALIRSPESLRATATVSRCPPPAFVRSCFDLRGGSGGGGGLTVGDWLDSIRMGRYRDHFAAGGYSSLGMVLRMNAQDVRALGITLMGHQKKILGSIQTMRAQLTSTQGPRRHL

Row | SMILES | Kd [1] [nM] | Kd (Ephrin type-A receptor 8) [nM]
1 | Oc1c2ccccc2c2c3c(cccc13)N=N2 [SP-600125] | 22 | –
2 | CCOc1cc2ncc(C#N)c(Nc3ccc(F)c(Cl)c3)c2cc1NC(=O)/C=C/CN(C)C [PELITINIB] | – | 400
